Literature values as cited in article PMC3402085 (ACS medicinal chemistry letters, 2012).

Test system: ALS
Details: FDA-approved drug for ALS; cited from earlier work

In the case of `Nc1nc2ccc(OC(F)(F)F)cc2s1` [riluzole], the extension of survival is listed as 2–3 months.
